Source: PubChem BioAssay (Tox21)
Several values for one entry are separate records, joined by “and”; a condition that tells them apart may be missing. Equal entries are not always repeated. Only a part is listed here, and it is no random draw. Records with an inconclusive call do not appear. Activity calls are given as the source filed them. The call rests on the fitted dose curve; in most records, active means well fitted activation curve with a large enough effect in the signal ratio in the repeat runs (not every such curve was filed as active); inconclusive means weak or mixed curves; inactive means flat fitted curve, though single readings scatter; the % refers to the signal ratio.

experiment: p53 small molecule agonists, cell-based qHTS assay (AID 1963582); conditions: HCT-116 p53RE-bla reporter, beta-lactamase FRET ratio, 16 h; at 13.5 µM (top of the series)
Excerpt: National Center for Advancing Translational Sciences [NCATS]
Division of Preclinical Innovation [DPI]
U.S. Environmental Protection Agency [EPA]
National Institutes of Environmental Health Sciences [NIEHS]
National Toxicology Program [NTP]
U.S. Food and Drug Administration [FDA]
p53, a tumor suppressor protein, is activated following cellular insult, including DNA damage and other cellular stresses. The activation of p53 regulates cell fate by inducing DNA repair, cell cycle arrest, apoptosis, or cellular senescence. The activation of p53, therefore, is a good indicator of DNA damage and other cellular stresses. […] The activation of the reporter gene under culture conditions can be detected by fluorescence intensity. This cell line was used to screen the Tox21 10K compound library in a 1536-well plate format and to identify agonists that activate the p53 signaling pathway.
Tox21 Assay Protocol Summary:
The p53RE-bla cells were dispensed at 4,000 cells/5 ul/well in 1536-well black wall/clear bottom plates using a Multidrop dispenser. After the assay plates were incubated at a 37 C/5% CO2 incubator for 5 hours, 23 nL of compounds dissolved in DMSO, positive controls or DMSO only was transferred to the assay plate by a pin tool. The plates were incubated at 37 C for 16 hours. After 1 uL of LiveBLAzerTM B/G FRET substrate was added using a Flying Reagent Dispenser, the plates were incubated at room temperature for 2 hours, and fluorescence intensity was measured by an Envision plate reader.
On the % scale 0 is the no-effect control and ±100 the full control effect.

| SMILES | activation |
| --- | --- |
| CCC(C)(OOC(C)(C)C)OOC(C)(C)C | inactive: 1.63% |

same assay, conditions: HCT-116 p53RE-bla reporter, beta-lactamase FRET ratio, 16 h; at 30.3 µM (top of the series)

| SMILES | activation |
| --- | --- |
| NC(=O)Nc1ccc([As](=O)(O)O)cc1 | inactive: 1.22% |
| CN(C(=O)Cc1ccccc1)[C@H]1CC[C@@]2(CCCO2)C[C@@H]1N1CCCC1 | inactive: -3.22% |
| CN(C(=O)Cc1ccc(Cl)c(Cl)c1)[C@H]1CC[C@@]2(CCCO2)C[C@@H]1N1CCCC1 | inactive: -0.542% |

same assay, conditions: HCT-116 p53RE-bla reporter, beta-lactamase FRET ratio, 16 h; at 66 µM (top of the series)

| SMILES | activation |
| --- | --- |
| CCOP(=S)(CC)Sc1ccccc1 (stereo not given) | inactive: -0.165% |
| O=C(Cl)OCCOC(=O)Cl | inactive: -0.32% |
| O=P(Cl)(Cl)c1ccccc1 | inactive: 0.487% |
| ClP(Cl)c1ccccc1 | inactive: -2.21% |
| CC(C)CCCCCCCOP(OCCCCCCCC(C)C)Oc1ccccc1 | inactive: -3.36% |
| NC(=O)Nc1ccc([As](=O)(O)O)cc1 | inactive: -2.99% |
| COP(=S)(Cl)OC | inactive: -6.1% |
| CCNC(C)Cc1ccc2c(c1)OCO2 (stereo not given) | inactive: 3.46% |
| CN(C(=O)Cc1cccc2occc12)[C@H]1CC[C@@]2(CCCO2)C[C@@H]1N1CCCC1 | inactive: -0.229% |
| CCCCC(CC)CO[P+](=O)OCC(CC)CCCC (stereo not given) | inactive: -3.05% |
| CCCCO[P+](=O)OCCCC | inactive: -3.17% and inactive: -1.48% |
| COC(=O)Cl | inactive: 0.558% |
| O=P(Cl)(Oc1ccccc1)Oc1ccccc1 | inactive: 0.0921% |
| CCCCOP(OCCCC)OCCCC | inactive: -0.106% |
| O=[N+]([O-])c1ccc([N+](=O)[O-])cc1 | inactive: -0.689% |
| O=C(Cl)Oc1ccccc1 | inactive: -6.22% |
